Patent US4820727A, “N-acyl-N-naphthoylglycines as aldose reductase inhibitors” (American Home Products Corporation, priority 1987, dated 1989)

Assays:
dulcitol accumulation = assay: Galactosemic rats, % lowering of dulcitol (galactitol) accumulation in vivo; set-up: species or system Sprague-Dawley rats; conditions: diaphragm, 4 days
Excerpt: Such experiments are exemplified hereinbelow after the listing of the following general comments pertaining to these experiments:
(a) Four or more groups of six male rats, 50-70 g, Sprague-Dawley strain, were used. The first group, the control group, was fed a mixture of laboratory chow (rodent Laboratory Chow, Purina) and glucose at 20% (w/w %) concentration. […] The test compound was either admixed to the diet or administered by gavage. In experiments involving compound administration in the diet, the average dose administered was calculated from the actual food intake of the animals in each group. The concentration of galactose in the diet of the treated groups was the same as that for the untreated galactosemic group.
(b) After four days, the animals were killed by decapitation. The eyeballs were removed and punctured with a razor blade; the freed lenses were rolled gently on filter paper and weighed. The sciatic nerves were dissected as completely as possible and weighed. Both tissues when frozen can be kept up to two weeks before being analyzed for galactitol.
Only two minor reagent changes were made: (a) the rinsing mixture was an aqueous 5% (w/v) trichloroacetic acid solution and (b) the stock solution was prepared by dissolving 25 mg of dulcitol in 100 mL of an aqueous trichloroacetic acid solution. […]

aldose reductase = biological target: T1, aldose reductase (Bos taurus, UniProt P16116); assay: In vitro aldose reductase inhibition (modified Hayman and Kinoshita procedure, enzyme from bovine lens); format: biochemical; conditions: for inhibition at 10 µM: read-out: % Inhibition IN VITRO 10^-5 M; for inhibition at 1 µM: read-out: % Inhibition IN VITRO 10^-6 M
T1 construct: preparation of the enzyme from bovine lens; from tissue; host or cells: bovine lens
Excerpt: In the present case the procedure of Hayman and Kinoshita was modified in that the final chromatography step was omitted in the preparation of the enzyme from bovine lens.

SMILES	% Lowering dulcitol accumulation IN VIVO, D (dulcitol accumulation; 14 mg/kg) [%]	% Lowering dulcitol accumulation IN VIVO, D (dulcitol accumulation; 15 mg/kg) [%]	inhibition at 10 µM (aldose reductase) [%]	inhibition at 1 µM (aldose reductase) [%]
COC(=O)N(CC(=O)O)C(=O)c1c(F)ccc2c(C(F)(F)F)c(OC)ccc12 [Example 1, N-[[2-fluoro-6-methoxy-5-(trifluoromethyl)-1-naphthalenyl]carbonyl]-N-(methoxycarbonyl)glycine]	74	80		
COC(=O)N(CC(=O)O)C(=O)c1c(OCC(F)(F)F)ccc2c(C(F)(F)F)c(OC)ccc12 [Example 6, N-[[6-Methoxy-2-(2,2,2-trifluoroethoxy)-5-(trifluoromethyl)-1-naphthalenyl]carbonyl]-N-(methoxycarbonyl)glycine]			100	94
CCOC(=O)N(CC(=O)O)C(=O)c1c(Cl)ccc2c(C(F)(F)F)c(OC)ccc12 [Example 8, N-[[2-Chloro-6-methoxy-5-(trifluoromethyl)-1-naphthalenyl]carbonyl]-N-(ethoxycarbonyl)glycine]			97	94
